Some of the results follow.
What follows are molecules tested on A. baumannii ATCC 17978 (assay: relative growth (fraction of control); higher = less inhibition). Details: 50 µM.

Compound	relative growth
COCC(=O)Nc1ccc2c(c1)C(=O)N(C)C[C@H](OC)[C@@H](C)CN(Cc1ccccc1F)[C@@H](C)CO2	0.939
COc1ccccc1CNC(=O)C[C@H]1C[C@@H]2c3cc(NC(=O)c4ccc5c(c4)OCO5)ccc3O[C@@H]2[C@@H](CO)O1	1.06
C=C1C/C=C(\C)CC[C@@H]2[C@@H]1CC2(C)C	1.14
CCN([NH2+][O-])c1ccc(O)c(O)c1	1.01
COc1ccc(-n2nc(CCC(=O)N(C)O)cc2-c2ccc(Cl)cc2)cc1	1.05
CO[C@@H]1CN(C)C(=O)c2cc(NS(=O)(=O)CC(F)(F)F)ccc2OC[C@H](C)N(Cc2ccccn2)C[C@@H]1C	1.01
O=C(Cc1ccccn1)NCC[C@@H]1CC[C@@H](NC(=O)CN2CCOCC2)[C@@H](CO)O1	1.19
O=C(O)c1cc(O)c(O)c(O)c1	1.39
CCn1c(N)c(C(N)=O)sc1=S	0.951
CCN(CC)C(=O)N1CCN(C)CC1	1.02
CCCCc1c(C)nc2ccc(Br)cc2c1SC(N)N	1.02
Cn1cnc(S(=O)(=O)N[C@@H]2C=C[C@H](CC(=O)NCC3CC3)O[C@@H]2CO)c1	1.13
COc1c(OC)c2occc2c2oc(=O)ccc12	1.22
C[C@@H]1CN([C@@H](C)CO)C(=O)CCCn2nncc2CO[C@H]1CN(C)S(=O)(=O)c1ccc(Cl)cc1	0.964
CC(C)=CCC/C(C)=C/COc1ccc2ccc(=O)oc2c1	1.29
CCc1c(C(=O)OC)nnn1-c1nonc1N	1.04
CC1(C)C(=O)[C@@H]2C[C@@]3(O)C4=CC(=O)O[C@@H](c5ccoc5)[C@]4(C)CCC3[C@](C)(C2=O)[C@H]1CC(=O)O (stereo partly specified)	0.886
C=C(CC[C@@H](C)[C@H]1CC[C@@]2(C)C3=C(C[C@H](O)[C@]12C)[C@@]1(C)CC[C@@H](OC(=O)CC(=O)O)C(C)(C)[C@@H]1CC3)[C@@H](C)C(=O)O	1.47
CO[C@H]1CN(C)C(=O)c2ccc(NC(=O)C3CC3)cc2OC[C@@H](C)N(C(=O)CN2CCOCC2)C[C@@H]1C	0.992

Compound	relative growth
Cc1ccc(CCSc2ccc(Cl)c(Cl)c2)cn1	0.816
OCCN1C[C@@H](O)[C@@H](O)C(O)C1CO (stereo partly specified)	0.944
C=c1ccccc1=C1NN=C(CN2CCCC2)O1	1.09
O=C(/C=C/c1cccc(-c2cn(CC(=O)N3CCC4(CC3)C(=O)NCN4c3ccccc3)nn2)c1)NO	0.887
O=C(C[C@H]1CC[C@H](NS(=O)(=O)c2ccccc2)[C@@H](CO)O1)NCc1ccncn1	1.07
CCc1nc2ccccc2c(C(=O)Nc2cccc(Cl)c2)c1C	1.02
Cl.Cl.O=C1c2c(O)ccc(O)c2C(=O)c2c(NCCNCCO)ccc(NCCNCCO)c21	1.96
COc1cccc(NC(=O)N[C@@H]2CC[C@H](CC(=O)N3CCN(C)CC3)O[C@@H]2CO)c1	0.967
CCCC(CCC)C(=O)[O-].[Na+]	1.03
COc1ccc(NC(=O)Nc2ccc3c(c2)[C@@H]2C[C@@H](CC(=O)NCc4ccccn4)O[C@@H](CO)[C@@H]2O3)cc1	0.917
Cn1cnc(S(=O)(=O)N[C@@H]2CC[C@@H](CC(=O)Nc3ccccc3)O[C@@H]2CO)c1	0.927
CCS(=O)(=O)NCC[C@@H]1CC[C@@H](NC(=O)C2CC2)[C@@H](CO)O1	0.892
Cc1cc(C)n([C@@H](CC(=O)O)C(=O)O)n1	0.963
CO[C@@H](CN(C)S(=O)(=O)c1cccc(Cl)c1)[C@@H](C)CN([C@H](C)CO)S(=O)(=O)c1ccc(Cl)cc1	0.816
Cn1cnc(S(=O)(=O)N[C@@H]2C=C[C@H](CC(=O)Nc3ccccc3)O[C@@H]2CO)c1	0.99
C[C@@H]1CN([C@H](C)CO)S(=O)(=O)c2ccc(C#CC(C)(C)O)cc2O[C@H]1CN(C)Cc1ccccc1	0.676
NC(=O)NO	1.14
Clc1ccccc1C(c1ccccc1)(c1ccccc1)n1ccnc1	1.95
O=C1O[C@@H](c2ccccc2)[C@@H](c2ccccc2)N2[C@@H](c3ccc(OCCO)cc3)[C@]3(C(=O)Nc4ccccc43)[C@@H](C(=O)Nc3nc4ccccc4s3)[C@H]12	0.944

Compound	relative growth
COc1cccc(NC(=O)N2C[C@H](O)COC[C@H]3O[C@@H](CC(=O)NCc4ccccc4F)CC[C@@H]32)c1	0.793
CS(=O)(=O)NCCc1ccccc1	1.04
COc1cccc(NC(=O)N2C[C@H](O)COC[C@@H]3O[C@H](CC(=O)NCc4ccccc4F)CC[C@H]32)c1	0.988
COc1ccc(CNC(=O)C[C@H]2C[C@@H]3c4cc(NC(=O)NC5CCCC5)ccc4O[C@@H]3[C@H](CO)O2)cc1	1.12
O=C(O)CCc1nc2ccccc2[nH]c1=O	0.875
O=C(c1ccccc1)N1Cc2ccccc2[C@H]2OC(c3ccc(OCCCO)cc3)=N[C@@]2(Cc2ccccc2)C1=O	0.985
CCNC(=O)C[C@@H]1CC[C@@H](NC(=O)C2CCOCC2)[C@H](CO)O1	1.08
C[C@H]1[C@H]([Si](C)(C)F)[C@@H](CCO)O[C@]12C(=O)N(Cc1ccccc1)c1ccc(N3C(=O)c4ccccc4Oc4ccccc43)cc12	0.866
C=CC[C@@H]1/C=C(\C)C[C@H](C)C[C@H](OC)[C@H]2O[C@@](O)(C(=O)C(=O)N3CCCC[C@H]3C(=O)O[C@H](/C(C)=C/C3CC[C@@H](O)[C@H](OC)C3)[C@H](C)[C@@H](O)CC1=O)[C@H](C)C[C@@H]2OC (stereo partly specified)	0.997
CCOC(=O)C[C@@H](N)c1ccccc1Cl	0.929
Nc1nc2ncc(=O)[nH]c2c(=O)[nH]1	1.01
O=C(C[C@H]1CC[C@H](NS(=O)(=O)c2ccccc2F)[C@H](CO)O1)NCCCN1CCOCC1	1.07
CN(C)CC(=O)N[C@@H]1CC[C@@H](CCNC(=O)C2CCC2)O[C@@H]1CO	1.05
Cl.Cl.O=C(O)COCCN1CCN([C@H](c2ccccc2)c2ccc(Cl)cc2)CC1	1.01
CCCCOc1cc(C(=O)NCCN(CC)CC)c2ccccc2n1.Cl	1.01
CC[C@H]1[C@H](OC(C)=O)C2=C(CC3C(=O)OC(=O)/C3=C/[C@H]1CC)C(=O)OC2=O (stereo partly specified)	1.2
Nc1nc2nn[nH]c2c(=O)[nH]1	1.02
Cc1[nH]c(=O)[nH]c(=O)c1/C=C/C(=O)O	0.958

From published antibiotic growth screens (doi:10.1038/s41589-023-01349-8)
